{
  "sequences": {"note": "Chains of the proteins cited; added tags and fusions are not shown. Residues count along the entry.", "UniProt P00533, 25-1210 T790M limits assumed": "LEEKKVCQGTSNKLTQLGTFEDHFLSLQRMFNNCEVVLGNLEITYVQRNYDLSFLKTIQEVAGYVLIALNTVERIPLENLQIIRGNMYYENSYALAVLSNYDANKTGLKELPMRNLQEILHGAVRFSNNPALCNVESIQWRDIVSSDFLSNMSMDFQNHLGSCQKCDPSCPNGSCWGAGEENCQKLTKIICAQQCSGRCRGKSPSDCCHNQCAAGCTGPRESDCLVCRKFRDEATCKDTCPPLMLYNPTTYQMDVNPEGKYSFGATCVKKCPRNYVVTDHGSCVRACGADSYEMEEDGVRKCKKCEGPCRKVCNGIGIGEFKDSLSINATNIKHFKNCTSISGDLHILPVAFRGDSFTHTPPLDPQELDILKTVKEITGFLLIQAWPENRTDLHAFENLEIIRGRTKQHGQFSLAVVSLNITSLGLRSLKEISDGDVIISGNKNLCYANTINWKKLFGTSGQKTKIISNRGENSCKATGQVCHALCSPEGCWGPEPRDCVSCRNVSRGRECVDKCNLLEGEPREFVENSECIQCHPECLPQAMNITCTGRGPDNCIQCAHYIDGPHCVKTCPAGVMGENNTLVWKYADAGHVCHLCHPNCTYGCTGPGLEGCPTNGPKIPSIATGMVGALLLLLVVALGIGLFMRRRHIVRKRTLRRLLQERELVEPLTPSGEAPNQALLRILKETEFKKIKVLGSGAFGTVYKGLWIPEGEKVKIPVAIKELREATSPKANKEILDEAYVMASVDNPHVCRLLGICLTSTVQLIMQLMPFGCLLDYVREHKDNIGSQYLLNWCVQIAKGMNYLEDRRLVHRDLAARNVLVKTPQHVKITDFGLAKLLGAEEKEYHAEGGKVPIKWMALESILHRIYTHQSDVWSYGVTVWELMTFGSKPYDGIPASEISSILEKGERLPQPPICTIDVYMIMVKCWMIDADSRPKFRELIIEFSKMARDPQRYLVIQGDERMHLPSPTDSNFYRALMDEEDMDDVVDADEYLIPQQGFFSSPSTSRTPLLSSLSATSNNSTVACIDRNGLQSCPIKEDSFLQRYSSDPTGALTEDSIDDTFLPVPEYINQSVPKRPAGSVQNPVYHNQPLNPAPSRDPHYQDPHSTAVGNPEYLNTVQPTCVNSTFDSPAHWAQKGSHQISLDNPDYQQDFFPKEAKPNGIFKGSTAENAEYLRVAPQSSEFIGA"},
  "source": "ChEMBL document CHEMBL5715949",
  "about": "“Discovery of a selective irreversible BMX inhibitor for prostate cancer” (ACS Chem Biol, 2013)",
  "key": {"[1]": {"system": "BaF3", "assay": "Antiproliferative activity against mouse BaF3 cells expressing TEL-fused JAK3 assessed growth inhibition incubated for 2 to 5 days by CellTiter-Glo assay", "format": "functional", "conditions": "time 2-5 day"}, "[2]": {"biological_target": "Epidermal growth factor receptor (Homo sapiens, UniProt P00533, T790M)"}},
  "data": [
    {"smiles": "C=CC(=O)Nc1cc(-n2c(=O)ccc3cnc4ccc(-c5ccc(NS(C)(=O)=O)cc5)cc4c32)ccc1C", "values": [
      {"measurement": "GI50", "setting": "[1]", "result": 7.98, "unit": "µM"},
      {"measurement": "IC50", "setting": "[2]", "result": 0.175, "unit": "µM"}
    ]}
  ]
}
